{"source": "patent US5254558A", "about": "“Substituted 1,3-diazines as leukocyte elastase inhibitors” (Imperial Chemical Industries PLC, priority 1991, dated 1993)", "test_system": "HLE", "experiment": "in vivo tests (Acute Lung Injury Model, Acute Hemorrhagic Assay)", "data": [{"compound": "CC(C)C(NC(=O)Cn1c(-c2ccccc2)ncc(NC(=O)OCC(F)(F)F)c1=O)C(=O)C(F)(F)F", "note": "(stereo not shown) [Example 99]", "values": [{"measurement": "activity in in vivo tests", "result": "activity in in vivo tests"}]}]}
